For one experiment, the system named is MiaPaca-2 cells. Put plainly: MiaPaca-2 Cell Proliferation Assay. The conditions noted are these: read-out: Inhibition of cell proliferation in MiaPaca-2 (IC50 class), Table 2.
A further experiment concerns HPAF-II cells. Put plainly: HPAF-II Cell Proliferation Assay. The conditions noted are these: read-out: Inhibition of cell proliferation in HPAF-II (IC50 class), Table 2.
Experiment [1] concerns the target B-Raf kinase (SEQ ID NO: 1) (Homo sapiens, UniProt P15056). Put plainly: Biochemical Assay for B-Raf (coupled pyruvate kinase/lactate dehydrogenase assay). The conditions noted are these: read-out: BRAF (inhibition of biochemical activity, IC50); 1 mM ATP.
For another experiment, the system named is Pa16c cells. Put plainly: Pa16c Cell Proliferation Assay. The conditions noted are these: read-out: Inhibition of cell proliferation in Pa16c (IC50 class), Table 2.
The next experiment relates to HCT-116 cells. Put plainly: HCT-116 Cell Proliferation Assay. The conditions noted are these: read-out: Inhibition of cell proliferation in HCT-116 (IC50 class), Table 2.
Experiment [2] concerns the target C-Raf kinase (SEQ ID NO: 2) (Homo sapiens, UniProt P04049, Y340D/Y341D). Put plainly: Biochemical Assay for C-Raf (coupled pyruvate kinase/lactate dehydrogenase assay). The conditions noted are these: read-out: CRAF (inhibition of biochemical activity, IC50); 1 mM ATP.

Amino acid sequences for entries named in this document (tags omitted). A change or cut given only in a name is not applied to a line headed by its entry. Residues count along the entry.
UniProt P15056, 416-766: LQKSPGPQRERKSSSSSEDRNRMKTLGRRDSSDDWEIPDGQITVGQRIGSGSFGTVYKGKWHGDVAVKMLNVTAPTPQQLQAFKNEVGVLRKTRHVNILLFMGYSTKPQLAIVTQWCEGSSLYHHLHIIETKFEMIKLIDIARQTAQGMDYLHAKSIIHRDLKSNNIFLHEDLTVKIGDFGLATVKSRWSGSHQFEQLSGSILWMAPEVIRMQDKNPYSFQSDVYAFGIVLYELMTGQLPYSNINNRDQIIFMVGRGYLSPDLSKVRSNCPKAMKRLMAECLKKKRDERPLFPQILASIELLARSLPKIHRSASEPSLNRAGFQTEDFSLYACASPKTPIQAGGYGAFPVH
UniProt P04049, 307-648 Y340D/Y341D: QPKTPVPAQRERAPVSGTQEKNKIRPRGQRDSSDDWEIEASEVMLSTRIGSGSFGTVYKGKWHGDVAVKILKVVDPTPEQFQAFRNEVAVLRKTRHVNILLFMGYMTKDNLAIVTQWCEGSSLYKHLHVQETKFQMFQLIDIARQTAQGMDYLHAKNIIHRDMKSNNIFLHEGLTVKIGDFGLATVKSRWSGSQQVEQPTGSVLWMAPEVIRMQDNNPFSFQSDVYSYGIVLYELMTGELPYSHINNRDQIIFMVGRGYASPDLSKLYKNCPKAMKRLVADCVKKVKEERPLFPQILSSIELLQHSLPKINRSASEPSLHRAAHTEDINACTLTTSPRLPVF

The record followed here is US20260226084A1, “DUAL RAF AND TUBULIN INHIBITORS AND METHODS OF USE THEREOF” (Deciphera Pharmaceuticals, LLC, priority 2023, published 2026).

For `Cc1ccc(NC(=O)c2cc(C(F)(F)F)cnn2)cc1-c1cncc(-c2cc(NC(=O)C3CC3)ncn2)c1`, the IC50 is 100 to 500 nM with MiaPaca-2 cells; 100 to 500 nM with HPAF-II cells; less than 100 nM in experiment [1]; 1000 to 10000 nM in the experiment on Pa16c cells; less than 100 nM in the experiment on HCT-116 cells; less than 100 nM in experiment [2].
